Screens (PubChem)
Apoferritin bind: binds horse apoferritin like a general anesthetic. apoferritin/1-aminoanthracene competitive binding, fluorescence. Potency, µM (highest dose often 77.5 µM), for the others: at the highest dose activity change, negative = displacement, actives largely listed as inhibitors. 350,000 compounds, 0.074% hits. AID 485281; further: potency means the concentration at half of the fitted maximal effect; on the % scale 0 is the no-effect control and ±100 the full control effect; nearly all actives have a fitted effect of over 20% in size
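Apoferritin-based anesthetic binding model; compound displacement of fluorescent 1-AMA measured as endpoint fluorescence after 10 minutes at room temperature, scaled to free-ligand and complex controls.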
miR-21 reporter: raises the signal of a miR-21 reporter | HeLa miR-21 FLuc reporter, luciferase, 48 h | Potency, µM (highest dose often 38.3 µM), inactives show at the highest dose reporter change, positive = more light | 340,000 tested, under 10 active | AID 2288; active = well fitted rising curve with a large enough effect; inconclusive = small, poorly fitted or top-dose-only effect; inactive = no such curve, though single readings can be large or run the other way;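 note: % of control where 0% means no effect; miR-21 action dims this reporter so a rising signal means less miR-21 action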
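HeLa miR-21-FLuc reporter line, endogenous miR-21; 2000 cells/well in DMEM/10% FBS; compound titration up to ~40uM final, 48 h, 37 degree Celsius; luciferase detection reagent, 15 min lysis, CCD luminescence.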
LDHA block: blocks human lactate dehydrogenase A | P00338 | purified LDHA, NADH/diaphorase-resazurin fluorescence; hits give low values | activity change, % (values are at about 110 or 230 µM) | 480,000 compounds, 0.15% hits; in the data active means activity change below about -30%; inconclusive means mostly about -25% to -30%;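 further: plate controls were DMSO wells for no effect and wells without enzyme for full effect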
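Human LDH5 (2 nM) was incubated with 0.06 mM NADH and 0.2 mM pyruvate for 5 min at room temperature in Tris pH 7.4. Remaining NADH was coupled through diaphorase/resazurin, and resorufin fluorescence was read at 0 and 20 min.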
Active calls of the source: *; ? = inconclusive; nt = no result; ! = not confirmed by another sample. An excerpt weighted towards active compounds, which were near 0.2% of everything screened. Unless noted, the call rests on the fitted dose curve; in most records, active means well fitted curve in the direction sought with a large enough effect; inconclusive means small, poorly fitted or top-dose-only effect, or another doubt; inactive means no such curve, though single readings can be large; an effect the other way counts as inactive or inconclusive.

#1 C/C(=N\NC(N)=S)C12CC3CC(CC(C3)C1)C2
  Apoferritin bind: 8.91µM*
  miR-21 reporter: 29.1%
  LDHA block: -6.8
#2 N#Cc1c(-c2cccc(-c3no[n+]([O-])c3C#N)c2)no[n+]1[O-]
  Apoferritin bind: nt
  miR-21 reporter: nt
  LDHA block: 2.6
#3 CC12CC[C@H]3[C@@H](CCC4(O)CC(O[N+](=O)[O-])CCC34CO[N+](=O)[O-])C1(O)CCC2C1=CC(=O)OC1 (stereo partly drawn)
  Apoferritin bind: nt
  miR-21 reporter: nt
  LDHA block: 0.4
#4 COc1ccccc1N1CCN(Cc2ccc(Cl)cc2Cl)CC1
  Apoferritin bind: -8.8%
  miR-21 reporter: -2.0%
  LDHA block: -16.4
#5 Cc1ccc(CN2CCN(Cc3ccc(F)cc3)CC2)cc1
  Apoferritin bind: nt
  miR-21 reporter: nt
  LDHA block: 9.1
#6 Cc1ccc(CN2CCN(Cc3ccccc3F)CC2)cc1
  Apoferritin bind: -4.3%
  miR-21 reporter: -5.6%
  LDHA block: -34.9*
#7 COc1ccccc1CN1CCN(Cc2ccc(Cl)cc2)CC1
  Apoferritin bind: -7.9%
  miR-21 reporter: -6.5%
  LDHA block: -34.4*
#8 COc1ccccc1CN1CCN(C(=O)COc2ccc3ccccc3c2)CC1
  Apoferritin bind: -8.9%
  miR-21 reporter: -4.3%
  LDHA block: -4.5
#9 COc1ccc(CN2CCN(Cc3ccccc3OC)CC2)cc1
  Apoferritin bind: -9.0%
  miR-21 reporter: -2.9%
  LDHA block: -36.9*
#10 N#Cc1ccc(NC(=O)CSC2=Nc3ccccc3C3CC=NN23)cc1Cl (stereo not drawn)
  Apoferritin bind: nt
  miR-21 reporter: nt
  LDHA block: 0.6

#11 Cc1ccc(NC(=O)CN2C(=O)CN=C(c3ccc(F)cc3)c3c2sc(C)c3C)cc1
  Apoferritin bind: nt
  miR-21 reporter: nt
  LDHA block: -1.2
#12 CN(C)c1ccc(C2CC2N)cc1 (stereo not drawn)
  Apoferritin bind: nt
  miR-21 reporter: nt
  LDHA block: 21.6
#13 COc1cccc(CCNCc2ccc(Br)cc2)c1
  Apoferritin bind: nt
  miR-21 reporter: nt
  LDHA block: -15.2
#14 CN1C(CC(O)c2ccccc2)CCCC1CC(O)c1ccccc1 (stereo not drawn)
  Apoferritin bind: nt
  miR-21 reporter: nt
  LDHA block: -1.8
#15 Cn1c[n+](C)cc1C(O)c1ccccc1 (stereo not drawn)
  Apoferritin bind: -2.1%
  miR-21 reporter: 2.1%
  LDHA block: -61.3*!
#16 Cc1cc(C)c(NC(=O)c2cn(Cc3ccccc3)nn2)c(C)c1
  Apoferritin bind: nt
  miR-21 reporter: nt
  LDHA block: 8.1
#17 S=C(NCCc1ccccc1)N1Cc2cc(-c3ccccc3)ccc2-n2nncc2C1
  Apoferritin bind: nt
  miR-21 reporter: nt
  LDHA block: -6.0
#18 CCOC(=O)CNC(=O)N1Cc2cc(-c3ccccc3)ccc2-n2nncc2C1
  Apoferritin bind: nt
  miR-21 reporter: nt
  LDHA block: -2.2
#19 S=C(NCCc1ccccc1)N1Cc2ccccc2-n2nncc2C1
  Apoferritin bind: nt
  miR-21 reporter: nt
  LDHA block: -36.4*
#20 CCOC(=O)CNC(=O)N1Cc2ccccc2-n2nncc2C1
  Apoferritin bind: nt
  miR-21 reporter: nt
  LDHA block: -33.2*

Just Apoferritin bind and LDHA block, for some of the entries so far:
entry	SMILES	Apoferritin bind	LDHA block
13	COc1cccc(CCNCc2ccc(Br)cc2)c1	nt	-15.2
14	CN1C(CC(O)c2ccccc2)CCCC1CC(O)c1ccccc1 (stereo not drawn)	nt	-1.8
15	Cn1c[n+](C)cc1C(O)c1ccccc1 (stereo not drawn)	-2.1%	-61.3*!
16	Cc1cc(C)c(NC(=O)c2cn(Cc3ccccc3)nn2)c(C)c1	nt	8.1

(next part)
#21 CCOC(=O)C1=C(C)OC(N)=C(C(=O)OC)C12C(=O)Nc1cc(Br)ccc12 (stereo not drawn)
  Apoferritin bind: nt
  miR-21 reporter: nt
  LDHA block: 38.5
#22 O=C1CSC(c2ccc(Cl)cc2)c2cn[nH]c2N1 (stereo not drawn)
  Apoferritin bind: nt
  miR-21 reporter: nt
  LDHA block: -7.6
#23 O=C1NC(=O)N(Cc2cccs2)C(=O)/C1=C/c1ccc(N2CCOCC2)cc1
  Apoferritin bind: -12.4%
  miR-21 reporter: ?
  LDHA block: -46.3*
#24 CCN1C(=O)NC(=O)/C(=C\c2ccc(N3CCOCC3)cc2OC)C1=O
  Apoferritin bind: -9.9%
  miR-21 reporter: -5.0%
  LDHA block: nt
#25 Cc1cccc(OCC(=O)N2CCN(Cc3ccncc3)CC2)c1
  Apoferritin bind: -3.9%
  miR-21 reporter: 0.2%
  LDHA block: ?
#26 O=C(COc1ccc(Br)cc1)N1CCN(Cc2ccncc2)CC1
  Apoferritin bind: -4.3%
  miR-21 reporter: -1.0%
  LDHA block: -38.8*
#27 CN1C(=O)/C(=C\c2ccc(Br)s2)C(=O)NC1=S
  Apoferritin bind: -5.4%
  miR-21 reporter: -7.3%
  LDHA block: -13.2
#28 O=C1NC(=S)NC(=O)C1=Cc1ccc(Br)s1
  Apoferritin bind: -7.9%
  miR-21 reporter: 5.0%
  LDHA block: -38.1*
#29 Cc1cc(C[N+](C)(C)C)oc1C
  Apoferritin bind: nt
  miR-21 reporter: nt
  LDHA block: 11.9
#30 CCCCNC(=O)NC(=O)CCl
  Apoferritin bind: nt
  miR-21 reporter: nt
  LDHA block: 7.9

#31 CCOc1ccc(N2C(=O)/C(=C/c3ccco3)C(=O)NC2=S)cc1
  Apoferritin bind: -18.8%
  miR-21 reporter: -0.9%
  LDHA block: -36.9*
#32 COc1ccc(N2C(=O)NC(=O)/C(=C\c3ccccc3[N+](=O)[O-])C2=O)cc1
  Apoferritin bind: -13.3%
  miR-21 reporter: -1.9%
  LDHA block: ?
#33 CCOc1ccc(N2C(=O)/C(=C\c3cccs3)C(=O)NC2=S)cc1
  Apoferritin bind: -9.3%
  miR-21 reporter: -0.7%
  LDHA block: -8.7
#34 CCOc1ccc(N2C(=O)NC(=O)/C(=C\c3ccccc3[N+](=O)[O-])C2=O)cc1
  Apoferritin bind: -10.0%
  miR-21 reporter: -0.7%
  LDHA block: -52.7*
#35 C[N+](C)(C)CC1CC1
  Apoferritin bind: nt
  miR-21 reporter: nt
  LDHA block: 5.3
#36 Cc1[nH]c2ccccc2c1/C=C/[N+](=O)[O-]
  Apoferritin bind: nt
  miR-21 reporter: nt
  LDHA block: 12.2
#37 CCN(CC)P(=O)(NC(=O)C(Cl)(Cl)Cl)N(CC)CC.[Cl-].[Cl-].[Cl-].[Nd+3]
  Apoferritin bind: -3.7%
  miR-21 reporter: 14.3%
  LDHA block: -49.0*
#38 COc1ccc(CN2CCN(C(=O)COc3ccc4ccccc4c3)CC2)cc1
  Apoferritin bind: nt
  miR-21 reporter: nt
  LDHA block: -2.3
#39 NC(=O)C1CCN(C(=O)c2cn(Cc3ccccc3)c3ccccc23)CC1
  Apoferritin bind: nt
  miR-21 reporter: nt
  LDHA block: -15.0
#40 O=C1NC(=O)C(=Cc2ccccc2Oc2ccc(F)cc2)C(=O)N1
  Apoferritin bind: -18.5%
  miR-21 reporter: -2.9%
  LDHA block: -40.2*

Of the compounds above, two contain a cyano group.
#2 N#Cc1c(-c2cccc(-c3no[n+]([O-])c3C#N)c2)no[n+]1[O-]
  Apoferritin bind: nt
  miR-21 reporter: nt
  LDHA block: 2.6
#10 N#Cc1ccc(NC(=O)CSC2=Nc3ccccc3C3CC=NN23)cc1Cl (stereo not drawn)
  Apoferritin bind: nt
  miR-21 reporter: nt
  LDHA block: 0.6

Carrying on.
#41 Cc1ccc(S(=O)(=O)Oc2ccccc2C=C2C(=O)NC(=O)NC2=O)cc1
#42 CN(C)C(=O)Oc1ccc2cc(-c3ccccc3)c(=O)oc2c1
#43 Cc1ccc(C)c(NC(=O)c2cn(Cc3ccccc3)nn2)c1
#44 FC(F)Oc1ccc(CNCCc2c[nH]c3ccccc23)cc1
#45 CCOc1ccccc1N1C(=O)NC(=O)/C(=C/c2ccc3c4c(cccc24)CC3)C1=O
#46 COc1cccc(N2C(=O)NC(=O)/C(=C/c3ccc4c5c(cccc35)CC4)C2=O)c1
#47 [O]=[Sb]([OH])([OH])[c]1ccccc1
#48 O=C(Cc1ccccc1)OCc1ccccc1

| compound no. | 41 | 42 | 43 | 44 | 45 | 46 | 47 | 48 |
| --- | --- | --- | --- | --- | --- | --- | --- | --- |
| Apoferritin bind | nt | nt | nt | nt | 58.5% | 64.5% | nt | nt |
| miR-21 reporter | nt | nt | nt | nt | -6.2% | -7.2% | nt | nt |
| LDHA block | -11.0 | -18.6 | 7.3 | -1.5 | -72.2* | nt | -38.3* | -2.7 |

#49 N#CCC1CN2CCC1C(c1ccccc1)C2 (stereo not drawn)
#50 CC(=O)N1CCCSC1=Nc1ccccc1
#51 CCOc1ccccc1N=C1SCCCN1C
#52 c1coc(CN2Cc3ccccc3-n3nncc3C2)c1
#53 c1ccc(CN2Cc3ccccc3-n3nncc3C2)cc1
#54 CC(N)Cc1ccc(N(C)C)cc1 (stereo not drawn)
#55 c1ccc(CCNC2CCCCCCC2)cc1
#56 COc1ccc(OCCOc2cccc(C=C3C(=O)NC(=O)NC3=O)c2)cc1
#57 CN(CCOc1ccc(C=C2C(=O)NC(=O)NC2=O)cc1)c1ccccn1

| compound no. | 49 | 50 | 51 | 52 | 53 | 54 | 55 | 56 | 57 |
| --- | --- | --- | --- | --- | --- | --- | --- | --- | --- |
| Apoferritin bind | nt | -8.4% | -8.0% | nt | nt | nt | nt | ? | ? |
| miR-21 reporter | nt | -0.5% | 0.0% | nt | nt | nt | nt | -37.7% | -28.7% |
| LDHA block | 2.4 | -6.3 | -37.7* | -31.6* | -12.4 | -6.5 | -0.4 | nt | -32.3* |
